Test results taken from publication PMC9405135, “Tuning the Biological Activity of Camphorimine Complexes through Metal Selection” (Antibiotics, 2022).
pIC50: −log10 of the molar value. Where two headings read alike, the source gives them in different places.

Key:
A2780 cells = experiment: MTT cytotoxicity, A2780 ovarian cancer cells; conditions: read-out: IC50 A2780, 24 h incubation
V79 fibroblasts = experiment: MTT cytotoxicity, V79 normal fibroblasts; conditions: read-out: IC50 V79, 24 h incubation
OVCAR3 cells [1] = experiment: Superoxide generation (NBT assay); type: cell-based, human; conditions: 1 at 50 and 100 µM, 5 at 20 and 50 µM, 9 at 10 and 20 µM
Protocol: The ROS species superoxide (O2^•−) can be detected with NBT, a cell-permeant dye that can cross the cell membrane and be reduced by intracellular free radicals (superoxide anions) to form formazan particles, which can be detected as blue precipitates in the cells.
The nitro blue tetrazolium (NBT) assay was carried out adapting a previously described method. This assay was used to determine the ability of cells to produce superoxide anion upon treatment with the compounds. During the treatment, NBT is reduced by superoxide anion, resulting in dark-blue formazan particles. […] Then, the medium was discarded, and the blue formazan particles were dissolved in 200 μL of 90% DMSO (90% DMSO:10% NaOH 0.1 N with 0.1% SDS). The resulting NBT formazan was measured at 560 nm using a plate spectrophotometer.

OVCAR3 cells [2] = experiment: Total cellular metal uptake by PIXE or ICP-MS; conditions: 1 (Cu) 70 µM 24 h PIXE, 5 (Ag) 20 µM 6 h ICP-MS, 9 (Au) 20 µM 6 h PIXE, mean ± SD
[3] = tested on: caspase-3/7 in OVCAR3 cells; experiment: Caspase-3/7 activation (Caspase-Glo 3/7 assay); type: cell-based, human; conditions: OVCAR3, 24 h, concentrations below IC50
Protocol: Caspases are a family of cysteine proteases playing central roles in the regulation of cellular processes such as programmed cell death. Among them, caspase-3 and -7 are considered executioners of the apoptosis pathways. We investigated the possible activation of apoptotic events in OVCAR3 cells treated by camphorimine complexes 1, 5, and 9.
The activities of caspase-3 and -7 were assessed using the Caspase-Glo® 3/7 assay (Promega, Madison, WI, USA). The assay kit provides a proluminescent caspase-3/7 substrate (DEVD-aminoluciferin) and luciferase in a reagent optimized for caspase-3/7 activity, luciferase activity, and cell lysis. In the presence of caspase 3/7, this substrate is cleaved, and aminoluciferin is released and consumed by luciferase, which generates a luminescent signal proportional to the caspase activity present in the cells. The assay was carried out in a 96-well plate format with the OVCAR3 cells treated with complexes 1, 5, and 9 for 24 h at concentrations below their IC50 according to a previously described method. […] Results (mean ± SD) were expressed as relative luminescent units (RLU).

ΦX174 supercoiled DNA = experiment: Complex-DNA interaction, agarose gel electrophoretic mobility; type: binding; conditions: 0.5-15 µM complex, 24 h at 37 °C
Protocol: Therefore, we focused our studies mostly on the silver (5 and 7) and gold complexes (8 and 9) having the monocamphor ligands ^1A and ^2A, respectively. Complex 1 was also included for comparison. We evaluated the complexes’ ability to interact with DNA, by visualizing in vitro conformational changes in ΦX174 supercoiled DNA using agarose gel electrophoresis assays.
The DNA binding activity of the metal complexes was assessed through their ability to alter the electrophoretic mobilities of the covalently closed circular (ccc) and open circular (oc) forms of ΦX174 supercoiled DNA as previously described. Briefly, a mixture containing 200 ng of ϕX174 DNA (Promega, Madison, WI, USA) and different concentrations of the metal complexes was prepared. After incubation for 24 h at 37 °C in the dark, the samples were run in a 0.8% agarose gel in TAE buffer for 3 h at 90 V. The gel obtained was then stained using a 3× GelRed® (Biotium, Fremont, CA, USA) solution in H2O and imaged in an AlphaImagerEP (Alpha Innotech, San Leandro, CA, USA).

Caenorhabditis elegans = experiment: Toxicity in the in vivo model C. elegans (survival of L4 nematodes)
OVCAR3 cells [4] = experiment: MTT cytotoxicity, OVCAR3 ovarian cancer cells; conditions: for SI = selectivity index = IC50(HDF)/IC50(OVCAR3): HDF versus OVCAR3, 24 h; for pIC50: read-out: IC50 OVCAR3, MTT, 24 h incubation
OVCAR3 cells [5] = experiment: Lipid peroxidation (MDA, TBARS) assay; type: cell-based, human; conditions: OVCAR3 cells treated 6 h; 1 at 100 μM, 5 at 50 μM, 9 at 20 μM; mean ± SD
Protocol: Measurement of MDA relies on the detection of thiobarbituric acid (TBA)-reactive compounds generated from the decomposition of lipid peroxidation products. This reaction, which takes place under acidic conditions at 95 °C, results in the formation of an MDA–TBA adduct that can be quantified by its absorbance at 532 nm. […] Additionally, the MDA levels induced by the complexes correlated with the levels of ROS, pointing the involvement of ROS production in the mechanism of action of complexes under study and, consequently, the peroxidation of the membrane lipids, as supported by the correlation between the production of ROS and the levels of lipid peroxides, particularly for complexes 5 and 9.
The malondialdehyde (MDA) content in lipid extracts of OVCAR3 cells was measured using a colorimetric kit (BioVision, Milpitas, CA, USA), a method that relies on the reaction with thiobarbituric acid (TBARS assay). Briefly, OVCAR3 cells (5 × 10^5 cells/2 mL medium) were seeded in six-well plates and left to adhere for 24 h. […] The resulting cell pellet was treated following the kit recommended protocol. […] Then, 200 μL aliquots were then taken and transferred to a 96-well plate for MDA quantification at 532 nm. […]

[6] = Reduction potential by cyclic voltammetry; type: physicochemical; conditions: Bu4NBF4/CH3CN electrolyte, ±10 mV, versus SCE
HDF fibroblasts = experiment: MTT cytotoxicity, HDF normal fibroblasts; conditions: read-out: IC50 HDF, 24 h incubation
OVCAR3 cells [7] = experiment: Metal distribution in single cells by nuclear microscopy (PIXE); type: cell-based, human; conditions: 1 at 45 μM 24 h, 9 at 30 μM 3 h
Protocol: The distribution of copper and gold in treated cells was inspected by nuclear microscopy, making use of the PIXE technique to map and assess elemental contents in single cells. The nuclear microscopy techniques offer several advantages, regarding relatively high spatial resolution and sensitivity for a wide range of elements with physiological roles and those with pharmaceutical interest, in whole cells, while preserving most of their in vivo conditions.
OVCAR3 cells (ca. 1 × 10^6) were prepared for nuclear microscopy experiments by seeding the cells on a 100 nm thick silicon nitride membrane (Silson Ltd., Southam, UK), contained in six-well plates, and incubated overnight as described previously. Cells were incubated with complexes 1 and 9 at concentrations corresponding to the IC50 (45 μM for 24 h and 30 μM for 3 h, respectively). After incubation, the cells were analyzed at the nuclear microscopy facility of the C2TN/IST with a 2.0 MeV proton beam focused down to 3 × 4 µm^2 dimensions. Images of the micro-distributions of Cu and Au in OVCAR3 cells, as well as minor and trace physiological elements (e.g., P, S, K, and Fe), were obtained using the PIXE multielemental technique. Images of whole OVCAR3 cells were taken with 30 × 30 µm^2 scan sizes. Acquisition of data imaging and spectral analysis was performed using OMDAQ 2007 (Oxford Microbeams Ltd., Oxford, UK).

[Ag(NO3)(OC10H14NC6H5)2]
pIC50 (A2780 cells): 5.45
pIC50 (V79 fibroblasts): < 4.00
superoxide ROS levels (NBT reduction) (OVCAR3 cells [1]): increased the ROS levels in a dose-dependent manner
Total cellular uptake, concentration (ng metal content/10^6 cells) (OVCAR3 cells [2]): 273 ± 15 ng Metal Content/10^6 Cells
caspase-3/7 activation [3]: higher caspase-3 and -7 activation levels
interaction with DNA (change of electrophoretic mobility) (ΦX174 supercoiled DNA): none of them interacted significantly with DNA
concentration at which nematodes progress into adulthood and produce eggs (Caenorhabditis elegans; C. elegans exposed from L4 to adulthood): ≤ 5 µM
concentration at which worms swam in a coordinated and fast manner (Caenorhabditis elegans; C. elegans, 24 h incubation, visual inspection): below 100 µM
concentration at which survival rate, body size and movement were similar to control (Caenorhabditis elegans; C. elegans, 72 h exposure, control 1% DMSO): ≤ 10 µM
toxicity toward C. elegans (Caenorhabditis elegans; at 5 µM): nontoxic
LC50 (Caenorhabditis elegans; read-out: LC50 at 24 h, C. elegans L4, 24 h exposure): 145 µM
LC50 (Caenorhabditis elegans; read-out: LC50 at 48 h, C. elegans L4, 48 h exposure): 55.2 µM
LC50 (Caenorhabditis elegans; read-out: LC50 at 72 h, C. elegans L4, 72 h exposure): 20.7 µM
LC50 (Caenorhabditis elegans; read-out: LC50 at 96 h, C. elegans L4, 96 h exposure): 16.1 µM
SI = selectivity index = IC50(HDF)/IC50(OVCAR3) (OVCAR3 cells [4]): > 50
pIC50 (OVCAR3 cells [4]): 5.65
MDA (lipid peroxide content) (OVCAR3 cells [5]): 1740 ± 270 pmoles/10^6 Cells
Epred (reduction potential) [6]: 0.12 Volt
pIC50 (HDF fibroblasts): < 4.00

[{Ag(OC10H14NC6H5)}2(μ-O)]
pIC50 (A2780 cells): 6.18
pIC50 (V79 fibroblasts): 5.52
SI = selectivity index = IC50(HDF)/IC50(OVCAR3) (OVCAR3 cells [4]): 49
pIC50 (OVCAR3 cells [4]): 6.20
Epred (reduction potential) [6]: 0.00 Volt
pIC50 (HDF fibroblasts): 4.51

[Ag(OH)(OC10H14NC6H4NH2)]·CH3COOH
pIC50 (A2780 cells): 4.98
pIC50 (V79 fibroblasts): 4.47
interaction with DNA (change of electrophoretic mobility) (ΦX174 supercoiled DNA): none of them interacted significantly with DNA
pIC50 (OVCAR3 cells [4]): 5.05
Epred (reduction potential) [6]: −0.047 Volt
pIC50 (HDF fibroblasts): < 4.00

K[Au(CN)2(OC10H14NC6H4NH2)]
pIC50 (A2780 cells): 7.40
pIC50 (V79 fibroblasts): 6.32
superoxide ROS levels (NBT reduction) (OVCAR3 cells [1]): increased the ROS levels in a dose-dependent manner
Total cellular uptake, concentration (ng metal content/10^6 cells) (OVCAR3 cells [2]): 688 ± 23 ng Metal Content/10^6 Cells
cellular distribution of the metal (OVCAR3 cells [7]): spread in both the cytoplasm and the nucleus
caspase-3/7 activation [3]: higher caspase-3 and -7 activation levels
interaction with DNA (change of electrophoretic mobility) (ΦX174 supercoiled DNA): none of them interacted significantly with DNA
SI = selectivity index = IC50(HDF)/IC50(OVCAR3) (OVCAR3 cells [4]): 8.4
pIC50 (OVCAR3 cells [4]): 7.15
MDA (lipid peroxide content) (OVCAR3 cells [5]): 1370 ± 210 pmoles/10^6 Cells
Epred (reduction potential) [6]: −1.85 Volt
pIC50 (HDF fibroblasts): 6.23

K2[{Au(CN)2}2(OC10H14NC6H5)3]
pIC50 (A2780 cells): 7.10
pIC50 (V79 fibroblasts): 6.32
interaction with DNA (change of electrophoretic mobility) (ΦX174 supercoiled DNA): none of them interacted significantly with DNA
SI = selectivity index = IC50(HDF)/IC50(OVCAR3) (OVCAR3 cells [4]): 5.7
pIC50 (OVCAR3 cells [4]): 7.10
Epred (reduction potential) [6]: −1.65 Volt
pIC50 (HDF fibroblasts): 6.34
